Activity calls are given as the source filed them.
How the values were obtained:
Format in all cases: cell-based
Conditions in all cases: dose 1-10 µM
[1] = biological target: Retinoic acid receptor gamma (Homo sapiens) (UniProt P13631); assay: Agonist activity at RARgamma (unknown origin) transfected in African green monkey COS-7 cells co-transfected with LBD-GAL4 assessed as receptor transactivation at 1 to 10 uM incubated for 16 hrs by luciferase reporter gene assay
[2] = biological target: Retinoic acid receptor beta (Homo sapiens) (UniProt P10826); assay: Agonist activity at RARbeta (unknown origin) transfected in African green monkey COS-7 cells co-transfected with LBD-GAL4 assessed as receptor transactivation at 1 to 10 uM incubated for 16 hrs by luciferase reporter gene assay
[3] = biological target: T1, Vitamin D3 receptor (Homo sapiens) (UniProt P11473); assay: Agonist activity at VDR (unknown origin) transfected in African green monkey COS-7 cells co-transfected with LBD-GAL4 assessed as receptor transactivation at 1 to 10 uM incubated for 16 hrs by luciferase reporter gene assay
T1 sequence (whole entry): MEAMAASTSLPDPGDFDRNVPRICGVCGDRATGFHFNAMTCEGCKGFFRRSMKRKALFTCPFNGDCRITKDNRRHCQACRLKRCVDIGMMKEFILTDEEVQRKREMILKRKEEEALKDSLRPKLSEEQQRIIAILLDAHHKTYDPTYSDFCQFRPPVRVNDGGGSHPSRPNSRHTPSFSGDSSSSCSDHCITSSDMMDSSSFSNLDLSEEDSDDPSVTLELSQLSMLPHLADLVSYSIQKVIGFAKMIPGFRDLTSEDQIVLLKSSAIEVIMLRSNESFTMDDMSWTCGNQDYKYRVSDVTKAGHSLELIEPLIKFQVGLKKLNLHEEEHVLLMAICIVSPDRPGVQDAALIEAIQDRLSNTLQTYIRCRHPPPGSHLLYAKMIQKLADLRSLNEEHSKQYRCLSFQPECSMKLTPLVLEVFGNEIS

By UniProt entry, the sequences of proteins in these tests, tags left out.
UniProt P13631, whole entry: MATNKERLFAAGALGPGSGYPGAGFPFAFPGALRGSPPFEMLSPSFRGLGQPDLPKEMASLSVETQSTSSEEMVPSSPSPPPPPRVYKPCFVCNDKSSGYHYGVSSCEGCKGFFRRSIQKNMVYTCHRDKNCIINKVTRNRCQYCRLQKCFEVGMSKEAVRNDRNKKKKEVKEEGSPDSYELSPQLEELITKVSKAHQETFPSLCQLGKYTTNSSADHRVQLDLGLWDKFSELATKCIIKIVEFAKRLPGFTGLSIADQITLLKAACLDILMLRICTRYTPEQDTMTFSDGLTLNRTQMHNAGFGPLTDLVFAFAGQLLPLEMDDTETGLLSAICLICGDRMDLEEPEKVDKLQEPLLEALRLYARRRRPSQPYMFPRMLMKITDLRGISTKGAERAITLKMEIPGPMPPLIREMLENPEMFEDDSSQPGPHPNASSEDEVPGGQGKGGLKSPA
UniProt P10826, whole entry: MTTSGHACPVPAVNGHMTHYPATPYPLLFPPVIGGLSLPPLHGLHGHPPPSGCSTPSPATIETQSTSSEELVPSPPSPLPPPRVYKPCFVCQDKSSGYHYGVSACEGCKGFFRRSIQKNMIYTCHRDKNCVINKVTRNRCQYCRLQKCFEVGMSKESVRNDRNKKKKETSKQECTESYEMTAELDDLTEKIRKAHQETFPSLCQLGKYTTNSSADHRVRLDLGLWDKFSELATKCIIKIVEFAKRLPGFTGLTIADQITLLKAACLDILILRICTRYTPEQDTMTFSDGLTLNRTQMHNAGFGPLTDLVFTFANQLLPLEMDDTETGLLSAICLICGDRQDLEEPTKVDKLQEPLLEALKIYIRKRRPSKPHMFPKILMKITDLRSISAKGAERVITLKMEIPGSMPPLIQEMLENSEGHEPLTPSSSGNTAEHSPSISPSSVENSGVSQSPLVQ

[4] = biological target: Retinoic acid receptor gamma (Homo sapiens) (UniProt P13631); assay: Inhibition of RARgamma (unknown origin) transfected in African green monkey COS-7 cells co-transfected with LBD-GAL4 assessed as receptor transactivation at 1 to 10 uM incubated for 16 hrs by luciferase reporter gene assay
[5] = biological target: Retinoic acid receptor beta (Homo sapiens) (UniProt P10826); assay: Inhibition of RARbeta (unknown origin) transfected in African green monkey COS-7 cells co-transfected with LBD-GAL4 assessed as receptor transactivation at 1 to 10 uM incubated for 16 hrs by luciferase reporter gene assay
[6] = biological target: T1, Vitamin D3 receptor (Homo sapiens); assay: Inhibition of VDR (unknown origin) transfected in African green monkey COS-7 cells co-transfected with LBD-GAL4 assessed as receptor transactivation at 1 to 10 uM incubated for 16 hrs by luciferase reporter gene assay

Cc1cc(CN2CCN(c3ccc(C(F)(F)F)cn3)CC2)cc(C)c1OC(C)(C)C(=O)O
inactive: Activity [1] | Activity [2] | Activity [3] | inhibition [4] | inhibition [5] | inhibition [6]

— ChEMBL document CHEMBL5500338, “Design, synthesis, and biological evaluation of piperazine derivatives as pan-PPARs agonists for the treatment of liver fibrosis” (Eur J Med Chem, 2024)
